Columns and labels:
CAR+ T cells = test: CAR+ T cell enrichment during manufacturing in IL-2 or AP1903 (Example 13); format: cell-based; settings: expanded in 20 ng/ml human IL-2 or AP1903 from Day 5; FIGS. 35B-E
Procedure: On Day 0, Purified T cells were activated in X-Vivo-15 medium (Lonza) supplemented with 100 IU/mL human IL-2 (Miltenyi Biotec), 10% FBS (Hyclone), and human T TransAct (Miltenyi Biotec, Cat #130-111-160, 1:100 dilution) in a Grex-24 plate (Wilson Wolf, cat #80192M). On Day 2, T cells were resuspended at 0.5 million cells per mL in 1 mL of T cell transduction media per well of a Grex-24 plate (Wilson Wolf, cat #80192M). Lentiviral supernatants were made as described above and transduction was performed on Day 2. On Day 5 when transduction was complete, cells were washed to remove residual human IL-2, resuspended in fresh T cell expansion media, i.e., X-Vivo-15 supplemented with 5% human AB serum (Gemini Bio), and expanded in either 20 ng/ml human IL-2, or the indicated concentrations of AP1903, in Grex-24 well plates. Cells were expanded into larger G-Rex vessels (Wilson Wolf) as needed using T cell expansion media. On Days 5, 9 and 15, the enrichment of CAR+ T cells was determined by detecting the percentage of T cells that bound a FITC-conjugated v5 tag monoclonal antibody (Thermo Fisher) using flow cytometry.

CAR T cells = test: AP1903-driven growth assay: enrichment, memory and exhaustion phenotype of CAR T cells (Example 16B); format: cell-based; settings: 2 weeks; exogenous recombinant cytokine 10 ng/mL; 20% CAR+ seeded; FIG. 43
Procedure: To test whether different cytotail outputs influenced the memory differentiation and long-term survival of CAR T cells, we performed an AP1903-driven growth assay. CAR T cells bearing the indicated chimeric receptors were thawed and the percentages of CAR+ cells were normalized to the sample with the lowest transduction efficiency (i.e. 20% CAR+) by adding non-transduced T cells. Cells were either left untreated, or treated with 500 ng/ml of AP1903, and in the absence of exogenous cytokines (unless specified in the case of positive controls) or target cells for 2 weeks. As positive controls, CAR T cells were alternatively supplemented with either exogenous recombinant IL-7 or IL-2 (10 ng/mL each; Miltenyi). On Day 5 of the AP1903-driven growth assay, supernatents were sampled for the analysis of cytokine release using the MSD assay (Meso Scale Discovery). At the end of the 2-week culture, the memory and exhaustion phenotypes of surviving CAR T cells were determined. Briefly, duplicate samples from each culture condition cells were harvested and stained using the Zombie NIR Fixable Viability Kit (Biolegend). […]

## IL-2: human IL-2 (Miltenyi), exogenous recombinant cytokine [reference compound]
CAR+ T cells
  percentage of CAR+ T cells (enrichment) during expansion: maintained a stable percentage of CAR+ T cells
CAR T cells
  percentage of CAR+ cells: ~20%
